# Columns and labels:
# The chains behind the UniProt entries cited, without tags or fusion partners. Residues count along the entry.
# UniProt O00748, 27-559: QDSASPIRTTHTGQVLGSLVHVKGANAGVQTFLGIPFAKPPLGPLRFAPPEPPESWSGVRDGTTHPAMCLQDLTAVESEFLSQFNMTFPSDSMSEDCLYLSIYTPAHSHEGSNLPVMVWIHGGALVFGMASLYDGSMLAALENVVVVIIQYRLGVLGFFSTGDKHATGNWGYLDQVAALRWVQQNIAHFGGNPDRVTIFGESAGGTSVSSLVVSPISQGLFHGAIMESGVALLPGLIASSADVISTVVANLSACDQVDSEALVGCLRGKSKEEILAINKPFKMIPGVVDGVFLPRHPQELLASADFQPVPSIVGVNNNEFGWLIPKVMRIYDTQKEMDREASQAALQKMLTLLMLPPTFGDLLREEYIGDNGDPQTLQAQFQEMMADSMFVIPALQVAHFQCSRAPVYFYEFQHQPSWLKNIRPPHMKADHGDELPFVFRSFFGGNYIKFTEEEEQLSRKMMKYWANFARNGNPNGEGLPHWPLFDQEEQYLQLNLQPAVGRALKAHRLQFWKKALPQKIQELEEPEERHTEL
# [1] = Body weight of A549 xenograft mice (Example 4); type: in vivo, BALB/c nu/nu male mice; conditions: docetaxel 5->10 mg/kg, SNB-101 20 mg/kg (as SN-38), i.v. Q1W x 5
# [2] = molecular target: carboxylesterase 2 (CES2) (Homo sapiens, UniProt O00748); conditions: cited from earlier work
SMILES,Body weight at the end of the test (day 37) [1] [g],variation of conversion rate among patients ([2]; among patients),conversion rate of irinotecan to SN-38 in the body ([2]; in the body)
"CC(=O)O[C@@]12CO[C@@H]1C[C@H](O)[C@@]1(C)C(=O)[C@H](O)C3=C(C)[C@@H](OC(=O)[C@H](O)[C@@H](NC(=O)OC(C)(C)C)c4ccccc4)C[C@@](O)([C@@H](OC(=O)c4ccccc4)[C@H]21)C3(C)C [Docetaxel, docetaxel]",19.10,–,–
CCc1c2c(nc3ccc(OC(=O)N4CCC(N5CCCCC5)CC4)cc13)-c1cc3c(c(=O)n1C2)COC(=O)[C@]3(O)CC [irinotecan],–,more than 4 times,2-8%

# — patent US20230414602A1, “PHARMACEUTICAL COMPOSITION COMPRISING INSOLUBLE CAMPTOTHECIN COMPOUND-CONTAINING NANOPARTICLE FOR TREATMENT OF CANCER AND COMBINATION THERAPY THEREOF” (SNBioScience Inc., priority 2020, published 2023)
